AlphaSeq binding of Ab-14 heavy chain variants to a spike HR2 peptide

Values reported by Li et al. 2023, doi:10.1038/s41467-023-39022-2 (FLAb copy).

Target: peptide PDVDLGDISGINAS, taken from heptad repeat 2 (HR2) of SARS-CoV-2 spike.

Parent: Ab-14, a human scFv built as VH, a 15-residue (Gly4Ser)3 linker, VL. Only the CDRs of the heavy chain vary.
VH: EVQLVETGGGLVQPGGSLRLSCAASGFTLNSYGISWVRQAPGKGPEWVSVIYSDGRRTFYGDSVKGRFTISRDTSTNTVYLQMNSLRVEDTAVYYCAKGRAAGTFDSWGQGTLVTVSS
VL: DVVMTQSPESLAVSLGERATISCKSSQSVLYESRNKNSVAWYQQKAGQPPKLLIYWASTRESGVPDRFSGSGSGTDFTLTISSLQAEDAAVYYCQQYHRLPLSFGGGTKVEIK

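The starting antibody came from a phage panning campaign against this peptide. Designed CDR sequences, proposed from the first random library and measured here. Their group label is 14H_En_HC (En: ensemble of fine-tuned language models; HC: hill climbing; a sequence that several methods proposed may carry one label only). Affinity was read by AlphaSeq, a pooled yeast mating assay with surface-displayed partners. Pairs that bind mate more often; barcode pairs of the diploids are counted by sequencing. The ratio of observed to expected reads was calibrated, replicate by replicate, on BCL2-family standards whose Kd was known from biolayer interferometry. There are six technical replicates.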

The parent's heavy chain CDRs are GFTLNSYGIS, VIYSDGRRTFYGDSVK, GRAAGTFDS; each variant's own CDRs replace them letter for letter.
Numbers give log10(Kd / nM), so 0 is 1 nM and 3 is 1 µM. Smaller is tighter.
The mean shown is taken over the replicates in which the pair was detected.
"ND" marks a missing value. The strain was present, yet no cells mated with the target were sequenced in that replicate, which points to weak or no binding.
In the paper, a design with two or fewer of six values counts as a poor binder.
The parent sequence was in this pool as ten entries: three were never detected, three once, and four in most replicates, with averages from 0.34 to 2.37.
Background: pairings of all heavy chain designs with three empty control strains gave a value in 1% of cases (median 2.08, 5th percentile 0.84). Values in that range, when seen in few replicates, are hard to tell from nonspecific mating. Also given: how often the same scFv was detected with the empty control strains, with their mean in brackets.
Values of this round are not directly comparable with the first-round values of the same sequences.

CDR-H1	CDR-H2	CDR-H3	log10 Kd, replicates	log10 Kd (nM), mean	empty controls
GFDLNEYGIS	VIYADGRRTSYKDSVK	GEIAGTFDV	-0.31 / -0.06 / -0.75 / -0.50 / -0.19 / -0.52	-0.39	0/18
GFTLDEYGIS	VIYADGMRTFYADSVK	GNVAGTFDQ	-0.44 / -0.49 / -0.54 / -1.07 / -0.66 / -0.63	-0.64	0/18
GFDLNEYGIS	VIYADGQRTFYTDSVK	GTFAGTFDV	-0.65 / -0.74 / -1.01 / -0.80 / -1.25 / -0.55	-0.83	0/18
GFDLNEYGIS	VIYADGVRTFYVDSVK	GNTAGTFDV	-0.06 / -0.32 / -0.48 / -0.39 / -0.28 / -0.33	-0.31	0/18
GFDLNEYGIS	VIYADGMRTFYTDSVK	GNEAGTFDS	-0.37 / -0.66 / -0.90 / -0.97 / -0.59 / -0.57	-0.68	1/18 (1.52)
GFNLNEYGIS	VIYADGMRTFYSDSVK	GEVAGTFDV	-0.16 / 0.19 / -0.04 / -0.26 / -0.14 / 0.02	-0.07	1/18 (4.21)
GFNLNEYGIS	VIYADGRRTFYADSVK	GQIAGTFIV	0.44 / 0.27 / 0.85 / 0.36 / 0.94 / 0.35	0.54	1/18 (1.81)
GFNLDEYGIS	VIYADGRRTAYQDSVK	GEVAGTFDV	-0.34 / -0.46 / 0.05 / -0.86 / -0.50 / -0.23	-0.39	0/18
GFDLNEYGIS	VIYADGMRTAYTDSVK	GNEAGTFDA	0.26 / 0.51 / 0.03 / 0.33 / 0.48 / 0.30	0.32	0/18
GFDLNEYGIS	VIYADGRRTFYADSVK	GNIAGTFIS	-0.15 / -0.21 / -0.38 / -0.40 / -0.40 / -0.34	-0.31	0/18
GFDLNEYGIS	VIYADGRRTFYSDSVK	GQTAGTFDQ	-0.12 / -0.22 / -0.13 / -1.01 / -0.40 / -0.31	-0.37	0/18
GFDINEYGIS	VIYADGRRTQYADSVK	GEAAGTFDV	0.06 / 0.40 / -0.15 / -0.01 / 0.14 / 0.21	0.11	0/18
GFDLNEYGIS	VIYADGMRTFYTDSVK	GEFAGTFDS	0.24 / -0.02 / -0.12 / -0.09 / 0.16 / 1.01	0.20	0/18
GFDLNEYGIS	VIYADGRRSFYADSVK	GQTAGTFDS	-0.80 / -1.46 / -1.37 / -0.83 / -1.01 / -0.97	-1.07	0/18
GFDLNEYGIS	VIYADGRRTYYSDSVK	GQNAGTFDI	-0.49 / -0.90 / -0.88 / -0.71 / -1.03 / -0.59	-0.77	0/18
GFDLNEYGIS	VIYADGMRTFYADSVK	GEVAGTFDN	-0.39 / -0.55 / -0.37 / -0.73 / -0.61 / -0.35	-0.50	0/18
GFDLNEYGIS	VIYADGRRTAYIDSVK	GETAGTFDL	-0.20 / -0.63 / -0.45 / -0.66 / -0.63 / -0.41	-0.50	0/18
GFDLNEYGIS	VIYADGRRTAYVDSVK	GEAAGTFDL	ND / ND / ND / ND / ND / ND	ND	0/18
GFDLEEYGIS	VIYADGRRTAYADSVK	GEAAGTFDL	-0.73 / ND / -0.88 / -0.81 / -1.14 / 0.55	-0.60	0/18
GFDLNEYGIS	VIYADGVRTFYTDDVK	GEVAGTFDL	-0.45 / -0.36 / -0.45 / -0.63 / -0.71 / -0.42	-0.50	0/18
GFDLNEYGIS	VIYADGLRTSYKDSVK	GQLAGTFDQ	-0.24 / -0.23 / 0.20 / -0.34 / -0.13 / -0.12	-0.14	0/18
GFDLNEYGIS	VIYADGRRTFYAESVK	GEAAGTFDV	-0.34 / -0.67 / -0.63 / -0.71 / -0.58 / -0.48	-0.57	2/18 (3.07)
GFDLNEYGIS	VIYADGIRTFYADSVK	GNAAGTFDL	-0.24 / -0.61 / -0.56 / -0.59 / -0.68 / -0.42	-0.52	0/18
GFNLNEYGIS	VIYADGMRTFYSDSVK	GEQAGTFDV	-0.14 / -0.21 / -0.33 / -0.26 / -0.23 / -0.03	-0.20	1/18 (3.11)
GFDLDEYGIS	VIYADGRRTFYADSVK	GTNAGTFDV	-0.49 / -0.66 / -0.77 / -0.74 / -0.57 / -0.41	-0.61	0/18
GFDLNEYGIS	VIYADGMRTAYTDSVK	GHAAGTFDL	-0.47 / -0.78 / -0.95 / -1.07 / -0.69 / -0.32	-0.71	0/18
GFDLNEYGIS	VIYADGVRTFYADSVK	GSEAGTFDM	0.13 / -0.28 / 0.39 / -0.31 / -0.15 / 0.40	0.03	0/18
GFDLNEYGIS	VIYADGLRTFYTDSVK	GENAGTFDW	0.94 / 1.34 / 2.69 / 1.70 / 1.38 / 1.47	1.59	0/18
GFDLNEYGIS	VIYADGRRTAYIDSVK	GNQAGTFDI	1.22 / -0.17 / 0.24 / -0.17 / 0.44 / 0.07	0.27	0/18
GFDLNEYGIS	VIYADGMRTFYADSVK	GSEAGTFDM	-0.67 / -0.29 / -0.04 / -0.33 / 0.13 / 1.10	-0.02	0/18
GFDLNEYGIS	VIYADGVRTQYIDSVK	GEQAGTFDV	ND / ND / ND / ND / ND / ND	ND	0/18
GFNLNEYGIS	VIYADGKRKFYADSVK	GNTAGTFDV	-0.40 / -0.76 / -0.66 / -0.69 / -0.54 / -0.60	-0.61	2/18 (2.27)
GFNLDEYGIS	VIYADGRRTFYADSVK	GEIAGTFDF	-0.35 / -0.39 / -0.81 / -0.59 / -0.85 / 0.08	-0.49	0/18
GFDLNEYGIS	VIYADGRRTSYKDSVK	GENAGTFDV	0.14 / 0.29 / 0.10 / -0.02 / -0.37 / 0.42	0.09	0/18
GFDLNEYGIS	VIYADGRRTFYIDSVK	GEAAGTFDM	-0.67 / -0.78 / -0.27 / 0.11 / -0.76 / 0.02	-0.39	0/18
GFNLNEYGIS	VIYADGMRTFYSDSVK	GEAGGTFDV	0.34 / 0.07 / 0.05 / 0.58 / 0.01 / 0.05	0.18	0/18
GFDLDEYGIS	VIYADGMRTFYADSVK	GNTAGTFIS	0.88 / 0.74 / 3.50 / 1.41 / 1.48 / 0.96	1.49	0/18
GFDLNEYGIS	VIYADGRRTQYIDSVK	GETAGTFDK	-0.64 / ND / 0.32 / -0.50 / -1.09 / -0.39	-0.46	0/18
GFDLNEYGIS	VIYADGMRTFYADSVK	GQLAGTFDA	-0.33 / -0.55 / -0.49 / -0.22 / -0.45 / -0.23	-0.38	1/18 (2.59)
GFDLNEYGIS	VIYADGRRTAYIDSVK	GHAAGTFDT	-0.74 / -0.56 / -0.66 / -1.06 / -0.54 / -0.39	-0.66	0/18
GFDLNSYGIS	VIYSDGRRTFYGDSVK	GRAAGWFNS	ND / ND / ND / ND / 3.02 / ND	3.02	1/18 (2.63)

Excerpt, the first 5 entries:

CDR-H1	CDR-H2	CDR-H3	log10 Kd, replicates	log10 Kd (nM), mean	empty controls
GFDLNEYGIS	VIYADGRRTSYKDSVK	GEIAGTFDV	-0.31 / -0.06 / -0.75 / -0.50 / -0.19 / -0.52	-0.39	0/18
GFTLDEYGIS	VIYADGMRTFYADSVK	GNVAGTFDQ	-0.44 / -0.49 / -0.54 / -1.07 / -0.66 / -0.63	-0.64	0/18
GFDLNEYGIS	VIYADGQRTFYTDSVK	GTFAGTFDV	-0.65 / -0.74 / -1.01 / -0.80 / -1.25 / -0.55	-0.83	0/18
GFDLNEYGIS	VIYADGVRTFYVDSVK	GNTAGTFDV	-0.06 / -0.32 / -0.48 / -0.39 / -0.28 / -0.33	-0.31	0/18
GFDLNEYGIS	VIYADGMRTFYTDSVK	GNEAGTFDS	-0.37 / -0.66 / -0.90 / -0.97 / -0.59 / -0.57	-0.68	1/18 (1.52)